According to paper PMC10619633 (Chemical Science, 2023):

Experiment: Octanol/PBS partition coefficient
Assay type: physicochemical
Settings: room temperature, PF6- salts
In short: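 Partitioning measured between octanol and PBS; PBS replaced water to limit pH effects on log P. Complexes were tested as PF6− salts, whereas the biological assays used chloride salts.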

For “[Ru(Bphen)2(bpy-(NH CH 2CH2NH2)2-L)]2+(2PF6-).(L= N4-Succinoylsulfanilamide) [complex 5]”, the “log P (octanol/PBS partition coefficient)” value was “greater than 1”.
